# According to PubChem BioAssay AID1347075 (National Center for Advancing Translational Sciences (NCATS), 2019):
# The entries are a selection whose mix differs from that of the whole data set. Inconclusive results are not listed. A call without a number means that no potency is given here. Calls of active or inactive are those of the source. Calls follow the shape of the dose curve; as a rule, active = well fitted cell-killing curve with a large enough effect; inconclusive = small, poorly fitted or top-dose-only effect, or effect the other way; inactive = flat fitted curve, though single readings scatter.
# Test: qHTS assay for MDR1-selective chemotherapeutics: Primary screen using the parental adenocarcinoma cell KB-3-1; also: nearly all actives have a fitted effect of over 60% in size
# Settings: KB-3-1 viability, CellTiter-Glo ATP luminescence, 72 h; series mostly up to 46.1 µM
# Description: A prime difficulty in effectively treating cancer is the development of cellular resistance to multiple structurally unrelated anticancer drugs, a phenomenon known as multidrug resistance (MDR). […] Numerous strategies to overcome P-gp-mediated MDR have been explored, including the design of drugs that evade recognition and efflux, and development of inhibitors to block efflux and restore drug accumulation. […] An alternative approach is to exploit resistance by identifying drugs that target MDR cells over the non-resistant parental cells from which they were selected. […] The development of MDR1-selective agents represents a new strategy for resolving multidrug resistance, as it remains a long-standing clinical challenge for cancer chemotherapy.
# Our goal is to identify compounds that selectively kill P-gp-expressing MDR cells. We will identify MDR1-selective compounds by comparing toxicity of compounds in the screening library against parental, drug-naive (KB-3-1) adenocarcinoma cells as well as their drug-selected MDR sub-line (KB-V1). The differential toxicity of compounds against these two cell lines will be used to identify MDR1-selective compounds, whose cytotoxicity is potentiated, rather than diminished, by P-gp expression. This assay will be utilized to conduct a quantitative high-throughput screen (qHTS) in collaboration with the NIH Chemical Genomics Center to identify selective agents, and probe hits arising from the screen will be validated using secondary assays and characterized through a well-established follow-up research program. This screen was run against the entire NCGC library collection of about 400,000 compounds.
# NIH Molecular Libraries Probe Production Network [MLPCN]
# NIH Chemical Genomics Center [NCGC]
# PI: Michael Gottesman PhD, National Cancer Institute, NIH
# Briefly, 5 microL of media containing either KB-3-1 cells (columns 1-2, 4-48) are dispensed into Greiner white, treated solid-bottom 1536-well assay plates (media-only control is added to column 3). Compounds are then transferred via Kalypsys pin tool equipped with 1536-pin array (10 nL slotted pins, V&P Scientific, San Diego, CA). Following addition of compound, the plates are incubated at 37 degrees C for 72 hours. CellTiter-Glo (2.5 µL/well) is then added, and the plates are read in a ViewLux reader (Perkin-Elmer, clear luminescence filter, 1 second exposure, 1x binning) following a 10 minute incubation. All cells are dispensed in DMEM phenol-red free media containing 10% FBS.
# Library plates were screened starting from the lowest and proceeding to the highest concentration. Vehicle-only plates, with DMSO being pin-transferred to columns 5-48, will be inserted uniformly at the beginning and the end of each library in order to monitor and record any shifts in the background, which can be affected by reagent dispensers or loss in enzyme activity over time. Screening data will be corrected, normalized, and concentration-effect relationships will be derived by using publicly-available NCGC, NCATS curve fitting algorithms (http://ncgc.nih.gov/pub/openhts).
# Potency is read from the fitted curve at half-maximal effect.
row,Structure (SMILES),Potency
1,O=[As](O)(c1cccc(O)c1)c1cccc(O)c1,inactive
2,NC(=O)Nc1ccc([As](=O)(O)O)cc1,inactive
3,N#CCCN(C(=O)COC(=O)C(O)(c1ccccc1)c1ccccc1)c1ccc(F)cc1,inactive
4,CCOP1(=S)c2c(C)nn(CCC#N)c2N=C(c2ccc(F)cc2)N1C (stereo unspecified),inactive
5,CN(C(=O)Cc1ccccc1)[C@@H]1CC[C@]2(CCCO2)C[C@H]1N1CCCC1,inactive
6,O=[N+]([O-])c1ccc2c(c1)nnn2O,inactive
7,CN(C(=O)Cc1ccc(Cl)c(Cl)c1)[C@H]1CC[C@@]2(CCCO2)C[C@@H]1N1CCCC1,inactive
8,CCOP1(=S)c2c(C)nn(CCC#N)c2N=C(c2ccccc2F)N1C (stereo unspecified),inactive
9,O=P(Nc1nccs1)(Oc1ccccc1)Oc1ccccc1,inactive
10,O=P(Nc1nccs1)(c1ccccc1)c1nc2ccccc2s1 (stereo unspecified),inactive
11,CS(=O)(=O)c1cc([N+](=O)[O-])c2no[n+]([O-])c2c1,inactive
12,Nc1ccccc1[As](=O)(O)c1ccccc1,inactive
13,O=C(O)COc1ccc([As](=O)(O)O)cc1[N+](=O)[O-],inactive
14,ClCCSc1nnc(-c2cccnc2)o1,inactive
15,O=Cc1ccc(NCCCl)cc1,inactive
16,COC(=O)C1(C)COP(=O)(N2CCCCCC2)OC1 (stereo unspecified),inactive
17,CC(C)c1ccc(OP(=O)(Nc2ccccn2)Oc2ccccc2F)cc1 (stereo unspecified),inactive
18,CC(C)NC(=O)NP(=O)(Oc1ccccc1)Oc1ccccc1,inactive
19,CCN(CC)C(=S)SC(NC=O)C(Cl)(Cl)Cl (stereo unspecified),active: 5.17 µM
20,O=C(OC1CN2CCC1CC2)c1cccc2[nH]cnc12 (stereo unspecified),inactive
21,O=[As](O)(c1ccc(O)cc1)c1ccccc1O,inactive
22,C[As](=O)(O)c1cccc(C(=O)O)c1,inactive
23,COc1cc(C(=O)NCC2(N3CCOCC3)CCCCC2)ccc1OCC(C)C,inactive
24,[N-]=[N+]=NC1CCCCC1NC(=O)c1cc([N+](=O)[O-])cc([N+](=O)[O-])c1 (stereo unspecified),inactive
25,Cc1ccc(OP(=O)(Nc2ccc([N+](=O)[O-])cn2)Oc2ccc(C)cc2)cc1,inactive
26,ClCCN(CCCl)c1ccc(CC2C=CC=C2)cc1,inactive

row,Structure (SMILES),Potency
1,O=[N+]([O-])c1cc(Oc2ccc([N+](=O)[O-])cc2C(F)(F)F)cc([N+](=O)[O-])c1,inactive
2,COc1ccc(N/C(=N/P(=O)(N2CCOCC2)N2CCOCC2)N2CCOCC2)cc1,inactive
3,Cc1c2c(nc3ccccc13)SC(C(Cl)Cl)C2 (stereo unspecified),inactive
4,O=C(OC1CN2CCC1CC2)C12CC3CC(CC(C3)C1)C2 (stereo unspecified),inactive
5,Cc1cc(=O)[nH]c(N[N+](=O)[O-])n1,inactive
6,O=P1(N(CCCl)CCCl)OCCCN1CCCl (stereo unspecified),inactive
7,O=P1(N(CCCl)CCCl)Nc2ccccc2N1,inactive
8,COc1ccc2nc(NP(=O)(c3ccccc3)c3ccccc3)sc2c1,inactive
9,COc1cc(I)ccc1[As](=O)(O)O,inactive
10,O=C(OC1CN2CCC1CC2)c1cccc([N+](=O)[O-])c1 (stereo unspecified),inactive
11,CCOC(=O)c1ccc(NC(=O)C(C)(CCl)SC)cc1 (stereo unspecified),inactive
12,COP1(=S)c2c(C)nn(CCC#N)c2N=C(c2ccc(F)cc2)N1C (stereo unspecified),inactive
13,COC(=O)C1(C)COP(=O)(N2CCCC2)OC1 (stereo unspecified),inactive
14,O=C(O)C(=O)c1ccc(N(CCCl)CCCl)cc1,inactive
15,O=C(COc1ccccc1)OC1CN2CCC1CC2 (stereo unspecified),inactive
16,O=C(Nc1ccncc1[N+](=O)[O-])c1ccc([N+](=O)[O-])cc1[N+](=O)[O-],inactive
17,CCOC(=O)Nc1cccc([As](=O)(O)O)c1,inactive
18,O=P(Nc1ccccn1)(c1cccc2ccccc12)c1cccc2ccccc12,inactive
19,Cc1cc(SC(NC=O)C(Cl)(Cl)Cl)ncn1 (stereo unspecified),inactive
20,O=[N+]([O-])c1ccc(Nc2ccc(Oc3ccc([N+](=O)[O-])cc3[N+](=O)[O-])cc2)c([N+](=O)[O-])c1,inactive
21,CCOC(=O)Nc1ccc([As](=O)(O)O)c(O)c1,inactive
22,O=C(O)C(O)c1ccc(N(CCCl)CCCl)cc1 (stereo unspecified),inactive
23,CC1CCNP(=O)(N(CCCl)CCCl)O1 (stereo unspecified),inactive
24,COP(=O)(OC)N1CC1c1ccccc1 (stereo unspecified),inactive
25,Cc1cc(SC(NC(=O)c2ccccc2)C(Cl)(Cl)Cl)nc(C(C)C)n1 (stereo unspecified),inactive
